Test results: paper doi:10.1101/2025.08.03.668343v5
pKd: −log10 of the molar value.

Tests used:
Assay in all cases: fluorescence polarization titration
Settings in all cases: 0.8 nM dye, 20 mM Tris, 100 mM NaCl, pH 8, 25 °C
NovoTag657 = tested on: NovoTag657
NovoTag494 = tested on: NovoTag494
NovoTag494^L = tested on: NovoTag494^L
NovoTag494^S = tested on: NovoTag494^S
NovoTag596 = tested on: NovoTag596

CCN1c2cc3c(cc2C(C)CC1(C)C)C(c1c(F)c(F)c(F)c(F)c1C(=O)[O-])=c1cc2c4c(c1C3(C)C)CCC[N+]=4CCC2 (centres unmarked)
pKd (NovoTag657): 8.70

N=c1cc2oc3cc(N)c(F)cc3c(-c3ccccc3C(=O)O)c-2cc1F
pKd (NovoTag494): 7.72 | pKd (NovoTag494^L): 6.82 | pKd (NovoTag494^S): 7.30

CC1=CC(C)(C)Nc2cc3c(cc21)C(c1c(F)c(F)c(F)c(F)c1C(=O)O)=c1cc2c(cc1O3)=NC(C)(C)C=C2C
pKd (NovoTag596): 8.82
